Results published in ChEMBL document CHEMBL1201862, “PubChem BioAssay data set” (2004).
Only a part is listed here, and it is no random draw. Only a part of the results of these assays is listed, not drawn at random. Active and inactive are the calls of the source. The rule behind the calls is not given here.

Protein sequences, listed by entry. Tags and fused reporters are not part of them.
UniProt Q14974, whole entry, looked up: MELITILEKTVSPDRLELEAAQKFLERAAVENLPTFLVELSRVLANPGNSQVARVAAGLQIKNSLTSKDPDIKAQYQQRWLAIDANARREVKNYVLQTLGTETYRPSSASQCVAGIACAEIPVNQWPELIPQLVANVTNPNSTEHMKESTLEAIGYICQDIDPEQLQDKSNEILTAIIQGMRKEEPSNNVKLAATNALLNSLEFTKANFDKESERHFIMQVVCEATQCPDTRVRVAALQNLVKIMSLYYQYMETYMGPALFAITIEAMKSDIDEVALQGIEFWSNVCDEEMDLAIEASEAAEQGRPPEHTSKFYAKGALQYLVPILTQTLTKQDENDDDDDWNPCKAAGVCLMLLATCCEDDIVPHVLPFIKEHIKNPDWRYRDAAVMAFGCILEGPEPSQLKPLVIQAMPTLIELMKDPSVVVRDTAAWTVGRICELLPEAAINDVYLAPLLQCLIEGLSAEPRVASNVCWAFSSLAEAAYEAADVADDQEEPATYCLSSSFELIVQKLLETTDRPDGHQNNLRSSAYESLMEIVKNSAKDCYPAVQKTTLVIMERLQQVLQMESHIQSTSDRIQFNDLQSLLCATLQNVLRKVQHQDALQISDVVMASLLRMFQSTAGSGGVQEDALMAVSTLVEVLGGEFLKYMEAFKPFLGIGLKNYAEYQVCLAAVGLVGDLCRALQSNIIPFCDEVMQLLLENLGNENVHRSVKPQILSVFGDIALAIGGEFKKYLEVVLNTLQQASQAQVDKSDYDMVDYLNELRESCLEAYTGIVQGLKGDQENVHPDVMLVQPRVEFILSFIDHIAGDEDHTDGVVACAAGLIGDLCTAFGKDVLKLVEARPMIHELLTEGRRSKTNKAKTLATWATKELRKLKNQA
UniProt O95149, whole entry, looked up: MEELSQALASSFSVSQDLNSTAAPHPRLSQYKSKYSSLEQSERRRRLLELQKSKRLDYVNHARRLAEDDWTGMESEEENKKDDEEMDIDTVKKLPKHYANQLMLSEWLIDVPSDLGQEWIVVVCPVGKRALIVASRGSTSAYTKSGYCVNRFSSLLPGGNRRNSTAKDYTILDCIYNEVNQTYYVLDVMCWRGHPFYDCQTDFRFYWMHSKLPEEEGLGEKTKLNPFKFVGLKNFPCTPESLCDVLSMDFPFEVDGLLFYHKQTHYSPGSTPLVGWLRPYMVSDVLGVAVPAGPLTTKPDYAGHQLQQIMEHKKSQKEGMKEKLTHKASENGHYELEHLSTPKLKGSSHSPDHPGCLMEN

biological target: GTP-binding nuclear protein Ran/Importin subunit beta-1/Snurportin-1 (Homo sapiens) (UniProt P62826+Q14974+O95149); experiment: qHTS Assay for Inhibitors of RanGTP induced Rango (Ran-regulated importin-beta cargo) - Importin beta complex dissociation. [Related pubchem assays (depositor defined):AID540262]; type: functional

Question: For `O=C(O)C(O)c1ccccc1` (configuration not stated), which Potency is on record?
Answer: inactive

Question: Which Potency does the source give for `O=C(O)[C@@H](O)c1ccccc1` here?
Answer: inactive
